{"source": "ChEMBL document CHEMBL3393014", "about": "“Discovery of 5-(1H-indol-5-yl)-1,3,4-thiadiazol-2-amines as potent PIM inhibitors” (Bioorg Med Chem Lett, 2015)", "biological_target": "Serine/threonine-protein kinase pim-3 (Homo sapiens, UniProt Q86V86)", "assay": "Inhibition of full length recombinant PIM3 (unknown origin) using biotinylated-BAD peptide as substrate assessed as phosphorylation at serine 112 after 45 mins by HTRF method"}
{"compound": "Nc1nnc(-c2ccc3[nH]cc(-c4cccc(N5CCCC5)n4)c3c2)s1", "values": [{"measurement": "IC50", "value": 15, "unit": "nM"}]}
